Measurements taken from PubChem BioAssay AID651640 (Broad Institute, 2012).
Only a part is listed here, and it is no random draw. Inconclusive results are not listed. Active and inactive are the calls of the source. No stated cut-off is given here; in the data, active means CPE inhibition above about 20% (passing the limit was not always enough); inconclusive means no clear call, values can overlap the other calls; tested in BHK-21 cells.

Assay: protection of cells from dengue 2 killing – plate reader, single concentration, primary screen (AID 651640);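 further: 0% = median of neutral control wells and 100% = median of positive control wells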
Settings: DENV2-infected cells, cytopathic effect rescue, at 9.99 µM, hits give high values
For `Nc1ccc([As](=O)(O)c2ccc(N)cc2)cc1`, the CPE inhibition was inactive: -2.16%.
For `C[N+]1=C2C=CC=CC=C2SC12C([N+](=O)[O-])=CC([N+](=O)[O-])=C[C-]2[N+](=O)[O-]` (stereo unspecified), the CPE inhibition was inactive: 3.18%.
In the case of `Cc1ccc(NP(=O)(Oc2ccccc2)Oc2ccccc2)nc1`, the CPE inhibition was inactive: -4.59%.
With `O=[N+]([O-])c1cc([N+](=O)[O-])c(CCNc2ccccc2)c([N+](=O)[O-])c1` the CPE inhibition was inactive: -6.31%.
With `COc1ccc(C2=NCC(CBr)S2)cc1` (stereo unspecified) the CPE inhibition was inactive: -2.15%.
With `C/C(N)=N\P(=O)(OCc1ccccc1)OCc1ccccc1` the CPE inhibition was inactive: 0.268%.
With `C(Cc1nn[nH]n1)Cc1nn[nH]n1` the CPE inhibition was inactive: 17.5%.
For `Nc1ccc([As](=O)(O)c2ccc([N+](=O)[O-])cc2)cc1`, the CPE inhibition was inactive: -1.57%.
For `O=[As](O)(c1ccccc1)c1ccc(O)cc1`, the CPE inhibition was inactive: 2.53%.
With `O=[N+]([O-])c1ncn(CCn2cnc([N+](=O)[O-])n2)n1` the CPE inhibition was inactive: 1.3%.
In the case of `CC(=O)NC(SC(=S)N(C)C)C(Cl)(Cl)Cl` (stereo unspecified), the CPE inhibition was inactive: -10.2%.
For `O=P(Nc1nc2ccccc2s1)(c1ccccc1)c1ccccc1`, the CPE inhibition was inactive: 6.34%.
With `C[C@H]1OP(=O)(Oc2ccccc2)[C@H](O)[C@H](O)[C@H]1N=[N+]=[N-]` (stereo partly specified) the CPE inhibition was inactive: 19.7%.
For `CN(C)C1(CNC(=O)c2ccc(Cl)c(S(N)(=O)=O)c2)CCCCC1`, the CPE inhibition was inactive: 2.62%.
In the case of `O=P(Nc1ccccn1)(c1ccc(Br)cc1)c1ccc(Br)cc1`, the CPE inhibition was inactive: 1.93%.
For `COc1ccc(N)c([N+](=O)[O-])c1[N+](=O)[O-]`, the CPE inhibition was inactive: -2.94%.
With `Nc1ccc(CCCCOc2ccccc2)cc1` the CPE inhibition was inactive: 4.21%.
With `CC(NC(=O)COC(=O)C(O)(c1ccccc1)c1ccccc1)c1ccccc1` (stereo unspecified) the CPE inhibition was inactive: -2.52%.
In the case of `Cc1ccccc1OP(=O)(Nc1ccccn1)Oc1ccccc1C`, the CPE inhibition was inactive: 19.5%.
With `O=c1c2cc([N+](=O)[O-])ccc2[nH]c2c([N+](=O)[O-])cc([N+](=O)[O-])cc12` the CPE inhibition was inactive: 4.91%.
In the case of `CN(C)C(=O)Oc1noc2ccccc12`, the CPE inhibition was inactive: 2%.
With `O=P1(N(CCCl)CCCl)OCCC2CCCCN21` (stereo unspecified) the CPE inhibition was inactive: -3.83%.
With `c1ccc(-c2nn[nH]n2)c(-c2nn[nH]n2)c1` the CPE inhibition was inactive: -9.04%.
In the case of `Cc1ccc(NP(=O)(Oc2cccc(C)c2)Oc2cccc(C)c2)nc1`, the CPE inhibition was inactive: -3.87%.
For `O=C(NC1CCS(=O)(=O)C1)NP(=S)(Oc1ccccc1)Oc1ccccc1` (stereo unspecified), the CPE inhibition was inactive: 4.22%.
In the case of `CCNC(=S)/N=C(\N)N[N+](=O)[O-]`, the CPE inhibition was inactive: 17.5%.
For `CC(=O)Nc1ccc([As](=O)(O)O)c(O)c1`, the CPE inhibition was inactive: 0.769%.
For `CC(=O)Nc1ccc(Oc2c([N+](=O)[O-])cc([N+](=O)[O-])cc2[N+](=O)[O-])cc1`, the CPE inhibition was inactive: 3.89%.
In the case of `Cc1ccccc1CN(C)C(=O)COC(=O)C(O)(c1ccccc1)c1ccccc1`, the CPE inhibition was inactive: -17.8%.
For `C[C@H]1OP(=O)(Oc2ccccc2)C[C@@H]2O[C@@H]21` (stereo partly specified), the CPE inhibition was inactive: 2.27%.
For `C[C@@H]1C=CCP(=O)(Oc2ccccc2)O1` (stereo partly specified), the CPE inhibition was inactive: -0.813%.
For `CC(=O)c1ccc(N2CC2c2ccncc2)cc1` (stereo unspecified), the CPE inhibition was inactive: -4.22%.
For `N#C/C(=C\c1ccc(N(CCBr)CCBr)cc1)C(N)=O`, the CPE inhibition was inactive: -4.24%.
For `COC(=O)C1(C)COP(=O)(NCc2ccccc2)OC1` (stereo unspecified), the CPE inhibition was inactive: -2.95%.
With `CC(C)(C)C(=O)NC(Sc1ccccc1)C(Cl)(Cl)Cl` (stereo unspecified) the CPE inhibition was inactive: -3.21%.
With `CCOc1ccc(C2=NCC(CBr)S2)cc1` (stereo unspecified) the CPE inhibition was inactive: -7.14%.
